Results on one substance are retold here after patent publication US9815836B2, “Macrocyclic compounds as IRAK1/4 inhibitors and uses thereof” (Merck Patent GmbH, priority 2015, dated 2017).

The chains behind the UniProt entries cited, without tags or fusion partners. Residues count along the entry.
UniProt P51617, 194-712: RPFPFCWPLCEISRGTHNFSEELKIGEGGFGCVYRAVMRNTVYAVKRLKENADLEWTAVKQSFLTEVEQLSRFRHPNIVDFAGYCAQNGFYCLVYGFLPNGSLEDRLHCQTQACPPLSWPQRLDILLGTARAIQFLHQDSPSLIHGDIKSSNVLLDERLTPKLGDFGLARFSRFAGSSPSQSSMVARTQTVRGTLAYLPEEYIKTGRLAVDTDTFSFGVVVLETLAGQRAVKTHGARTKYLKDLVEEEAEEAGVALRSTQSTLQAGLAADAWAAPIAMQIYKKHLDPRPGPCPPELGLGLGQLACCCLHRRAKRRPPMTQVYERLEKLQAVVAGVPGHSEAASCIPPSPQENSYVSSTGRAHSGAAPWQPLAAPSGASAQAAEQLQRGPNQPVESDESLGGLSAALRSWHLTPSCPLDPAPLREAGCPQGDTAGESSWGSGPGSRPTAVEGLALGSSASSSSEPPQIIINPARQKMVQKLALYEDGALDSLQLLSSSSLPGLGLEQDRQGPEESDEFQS

This assay has as its target IRAK1 (Homo sapiens (Human), UniProt P51617). Kind of assay: IRAK1 enzymatic assay (ADP-Glo luminescence). As to conditions: human purified recombinant His-TEV-IRAK1 (194-712), ATP 1 μM. Type of assay: biochemical. As for the experimental part: In this assay, IRAK1 hydrolyses ATP and autophosphorylates. Measurement of IRAK-1 inhibition is performed in 384-well format based on luminescence assay (ADP-Glo™ Kinase Assay from Promega). Purified human recombinant IRAK1 ([…]) and serial diluted compounds in DMSO (range of concentration from 10 μM to 0.5 nM) or controls (1% DMSO) are incubated for 15 minutes at RT in assay buffer containing 50 mM Hepes pH 7.0, Fatty acid-free BSA 0.1%, Dithiothreitol (DTT) 2 mM, MgCl2 10 mM, EGTA 0.5 mM, Triton X-100 0.01%. The kinase reaction is then initiated by the addition of ATP at a concentration of 1μM. After 2 hours of incubation at RT, the reaction is stopped and the unconsumed ATP depleted by the addition of ADP-Glo™ Reagent according to supplier instructions. After 40 minutes of incubation at RT, the Kinase Detection Reagent is then added to the assay plate according to supplier instructions. After 20 minutes of incubation at RT, the luminescence signal is measured with a luminometer (PerkinElmer Envision or equivalent reader).
On the technique in general: In ADP-Glo the light output rises with the ADP produced.

For “(9E)-17-methyl-4,5,13,16, 17,20,26-heptaazatetracyclo[20.3.1.1^2,^5.0^1^5,^1^9]heptacosa-1(25),2(27),3,9,15,18,22(26),23-octaene-14,21-dione [Compound 34]”, the IC50 is 100 to 1000 nM.

By IC50 is commonly meant the concentration that gives 50% inhibition.
